Data as given in publication PMC6748671, “Distribution of Small Molecular Weight Drugs into the Porcine Lens: Studies on Imaging Mass Spectrometry, Partition Coefficients, and Implications in Ocular Pharmacokinetics” (Molecular Pharmaceutics, 2019).

Details: porcine lens, 4 h in vitro incubation

With `CCN(CC)c1ccc2c(-c3ccccc3C(=O)O)c3ccc(=[N+](CC)CC)cc-3oc2c1` [Rhodamine-B] the “distribution pattern of dye in the lens (fluorescence microscopy)” value was “distributed slightly deeper into the lens cortex”.
